Reference: ChEMBL document CHEMBL1142243, “Potent and selective alpha-ketoheterocycle-based inhibitors of the anandamide and oleamide catabolizing enzyme, fatty acid amide hydrolase” (J Med Chem, 2007)

Biological target: Fatty-acid amide hydrolase 1 (Rattus norvegicus) (UniProt P97612)
Experiment: Inhibition of rat recombinant FAAH expressed in Escherichia coli by [14C]oleamide breakdown

SMILES | Ki [nM]
O=C(CCCCCCc1ccccc1)c1ncc(-c2ccccc2)o1 | 80
COC(=O)c1cccc(-c2cnc(C(=O)CCCCCCc3ccccc3)o2)n1 | 8
